Molecular target: T1, EGFR (Homo sapiens, UniProt P00533)
T1 construct: endogenous in cells; host or cells: DU145
Assay: EGFR immunoprecipitation and anti-phosphotyrosine immunoblot in DU145 cells
Format: cell-based
Details: pre-incubation with AG1478
Description: 9. […] DU145 cells were seeded and pre-incubated with (A) EGFR inhibitor tyrphostin AG1478 (100 nM) or cyclohexamide (100 μg/ml) and (B) EGFRmAb-528, or EGFRpAb-1005 for 1 hour before the EGF- or HF-treatment. After 15 min treatment, cells were lysed and immunoblotted with anti-phospho ERK1/2 and antiERK1/2 antibodies. (C) Effect of the EGF receptor (EGFR) inhibitor, tyrphostin AG1478, on HF-mediated tyrosine phosphorylation of the EGFR. Serum-Starved DU145 cells were pre-incubated with 100 μM AG1478 prior to stimulation with 10 ng/ml EGF, 1 μM HF or 10 nM of DHT for 20 min. EGFR was immunoprecipitated from the cell lysates, and their phosphotyrosine level was determined by anti-phosphotyrosine antibody. All the results were visualized using enhanced chemiluminescence.
200. Serum-stared and treated DU145 cells were lysed with RIPA buffer for 30 min on ice. Lysates were then centrifuiged at 12,000 g for 10 min at 4° C. and protein concentrations were determined by the Bradford assay. 500 μg of cell lysates were incubated for 4 hours with either anti-Ras or anti-EGFR antibody (1/100, Santa Cruz Biotechnology) to the protein-antibody mixture and then added in 20 μl of protein A/G plus-agarose (Santa Cruz Biotechnology) for another 4 hours incubation with constant rotation. […]

## COc1cc2ncnc(Nc3cccc(Cl)c3)c2cc1OC [AG1478]
  inhibition of EGF- and HF-mediated EGFR autophosphorylation: can inhibit both EGF- and HF-mediated EGFR autophosphorylation
  total EGFR concentration: without affecting total EGFR concentration

Source: patent publication US20060270643A1, “Hyfroxyflutamide induced pathways related to androgen receptor negative prostate cancer cells” (priority 2002, published 2006)
